In patent US20030133874A1, “Analytical method to evaluate animal models of neurofibrillary degeneration” (priority 2002, published 2003):

Test system: tau
Assay: Tau phosphorylation in rat brain after prolonged pentobarbital anesthesia, immunoblot of heat-stable extracts

## CCCC(C)C1(CC)C(=O)NC(=O)NC1=O (stereo not drawn) [pentobarbital]
65 mg/kg i.p., after five hours
  AT8 reactivity normalized to total tau immunoreactivity, increase: more than five-fold
Exposure beyond 15 minutes
  Tau-1 reactivity of tau: decrease
Surgical brain removal, prolonged anesthesia (5 hrs)
  AP422 reactivity of rat tau after induced hyperphosphorylation: remains absent
